This is an account of results in paper PMC10688980, “Hepatitis B virus infection disrupts homologous recombination in hepatocellular carcinoma by stabilizing resection inhibitor ADRM1” (The Journal of Clinical Investigation, 2023).

The experiment has as its target T1, 6xHis-WDR70 (112–654 aa) (UniProt Q9NW82 112-654).
T1 construct: also called recombinant WDR70; purified WDR70
T1 sequence (looked up): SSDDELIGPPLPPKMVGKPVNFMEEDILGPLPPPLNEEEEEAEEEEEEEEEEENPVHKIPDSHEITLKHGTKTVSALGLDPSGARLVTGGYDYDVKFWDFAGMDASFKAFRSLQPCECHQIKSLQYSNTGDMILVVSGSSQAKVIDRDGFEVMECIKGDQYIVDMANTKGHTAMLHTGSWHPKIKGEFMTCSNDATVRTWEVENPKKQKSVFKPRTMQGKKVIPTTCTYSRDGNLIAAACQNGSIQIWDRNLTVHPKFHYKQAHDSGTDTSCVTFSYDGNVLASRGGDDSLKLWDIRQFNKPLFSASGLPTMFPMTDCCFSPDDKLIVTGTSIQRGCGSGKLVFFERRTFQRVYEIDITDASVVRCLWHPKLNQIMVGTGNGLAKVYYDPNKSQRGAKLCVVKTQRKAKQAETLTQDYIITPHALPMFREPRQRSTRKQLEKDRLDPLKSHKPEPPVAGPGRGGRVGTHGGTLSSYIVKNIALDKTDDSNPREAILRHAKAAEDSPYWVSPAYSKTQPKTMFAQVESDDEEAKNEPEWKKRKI
In words: pull-down; purified recombinant His-WDR70 and Strep-PSMD5. The conditions noted are these: both partners purified.

B1: Strep-PSMD5^Hsm3 (recombinant) (natural protein, UniProt Q16401 1-504, looked up)
chain: MAAQALALLREVARLEAPLEELRALHSVLQAVPLNELRQQAAELRLGPLFSLLNENHREKTTLCVSILERLLQAMEPVHVARNLRVDLQRGLIHPDDSVKILTLSQIGRIVENSDAVTEILNNAELLKQIVYCIGGENLSVAKAAIKSLSRISLTQAGLEALFESNLLDDLKSVMKTNDIVRYRVYELIIEISSVSPESLNYCTTSGLVTQLLRELTGEDVLVRATCIEMVTSLAYTHHGRQYLAQEGVIDQISNIIVGADSDPFSSFYLPGFVKFFGNLAVMDSPQQICERYPIFVEKVFEMIESQDPTMIGVAVDTVGILGSNVEGKQVLQKTGTRFERLLMRIGHQSKNAPVELKIRCLDAISSLLYLPPEQQTDDLLRMTESWFSSLSRDPLELFRGISSQPFPELHCAALKVFTAIANQPWAQKLMFNSPGFVEYVVDRSVEHDKASKDAKYELVKALANSKTIAEIFGNPNYLRLRTYLSEGPYYVKPVSTTAVEGAE
notes: also called recombinant PSMD5^Hsm3; His-PSMD5^Hsm3; source: E. coli BL21, purified (MagStrep XT beads, eluted with biotin)
Regarding B1, the binding result is “binds”.
